Assay results published in article PMC8463443 (Acta Pharmaceutica Sinica. B, 2021).

System: monkey kidney cell line Vero E6
Experiment: Cell viability, Vero E6
Format: cell-based
Settings: monkey kidney cell line Vero E6 (Fig. S6)

## CC(C)C[C@H](NC(=O)[C@H](CC(N)=O)NC(=O)[C@H](Cc1c[nH]c2ccccc12)NC(=O)[C@H](Cc1ccc(O)cc1)NC(=O)[C@H](CCC(=O)O)NC(=O)[C@H](C)NC(=O)[C@H](Cc1ccccc1)NC(=O)[C@H](CO)NC(=O)[C@@H](NC(=O)[C@@H](N)CCCCN)[C@@H](C)O)C(=O)N[C@@H](CC(C)C)C(=O)N[C@@H](CO)C(=O)N1CCC[C@H]1C(=O)N[C@@H](CCCCN)C(=O)O [PMI-2K]
  effect on viability of Vero E6: neither PMI-2K nor M3-2K had any effect on the viability
